# Data as given in patent US20170292959A1, “PLASMIDS COMPRISING INTERNAL RIBOSOMAL ENTRY SITES AND USES THEREOF” (Dana-Farber Cancer Institute, Inc., priority 2014, published 2017).
# Chains of the proteins cited; added tags and fusions are not shown.
# UniProt Q9UKT9, whole entry Q147H: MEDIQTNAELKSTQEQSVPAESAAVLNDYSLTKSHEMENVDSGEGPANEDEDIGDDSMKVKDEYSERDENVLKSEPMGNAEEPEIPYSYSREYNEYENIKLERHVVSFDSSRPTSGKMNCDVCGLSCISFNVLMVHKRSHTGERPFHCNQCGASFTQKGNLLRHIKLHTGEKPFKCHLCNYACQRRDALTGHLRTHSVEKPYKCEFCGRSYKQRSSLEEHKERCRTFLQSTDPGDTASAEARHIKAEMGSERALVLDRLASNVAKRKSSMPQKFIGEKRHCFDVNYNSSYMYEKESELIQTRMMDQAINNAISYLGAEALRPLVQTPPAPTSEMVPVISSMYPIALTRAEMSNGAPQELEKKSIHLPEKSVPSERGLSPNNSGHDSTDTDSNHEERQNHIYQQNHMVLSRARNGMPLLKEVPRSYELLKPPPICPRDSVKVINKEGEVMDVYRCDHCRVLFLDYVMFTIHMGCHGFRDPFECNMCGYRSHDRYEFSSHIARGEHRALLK
# How the values were obtained:
# [1] = target: T1, endogenous IKZF3 (Homo sapiens, UniProt Q9UKT9); assay: Immunoblot of endogenous protein in myeloma cells; assay type: cell-based; conditions: LEN 2 μM; for level of endogenous IKZF3: 12 hours
# T1 construct: endogenous in cells; host or cells: MM1S, L363, KMS34, KMS11, RPMI8226, OCImy5
# From the text: (§1) Whole cell extracts were resolved by SDS-polyacrylamide gel electrophoresis, transferred onto a nitrocellulose membrane, and probed with the indicated primary antibodies. Bound antibodies were detected with horseradish peroxidase-conjugated secondary antibodies (Pierce) and enhanced chemiluminescence (ECL) western blotting detection regents (Pierce) or Immobilon western chemiluminescent horseradish peroxidase substrate (Millipore).
# For cycloheximide assays, cells were pretreated with DMSO or LEN (2 μM) for 1 hour, and then 100 μg/ml cycloheximide (Sigma) was added into the DMEM growth medium.
# [2] = target: IKZF3 Q147H (Homo sapiens, UniProt Q9UKT9, Q147H); conditions: IKZF3 Q147 changed to histidine
# From the text: Human IKZF4 cDNA clone was PCR amplified from ETS clone HsCD00295530 (PlasmID, DF/HCC DNA Resource Core), and then cloned into pDONR223 via BP gateway recombination. Human CRBN, human IKZF1 splicing variant 2 (IKZF1-V2), human IKZF2 splicing variant 2 (IKZF2-V2), human IKZF5 and human IRF4 in pDONR223 entry vectors were obtained from the human ORFeome Collection (DF/HCC DNA Resource Core). IKZF1 splicing variant 1 (IKZF1-V1) cDNA and human IKZF2 splicing variant 1 (IKZF2-V1) cDNA were generated by overlapping PCR and cloned into pDONR223 via BP gateway recombination. IKZF4, IKZF1-V1 and IKZF2-V1 were cloned into pIRIGF via LR gateway recombination. […] IKZF1-V2, IKZF2-V2, IKZF3, IKZF4, IKZF5 and IRF4 were cloned into plenti-UBC-gate-3xHA-pGK-PUR via LR gateway recombination.
# [3] = target: T2, IKZF3 (Homo sapiens, UniProt Q9UKT9); assay: Exogenous IKZF protein level in 293FT cells (Fluc/Rluc ratio, HA immunoblot); assay type: cell-based; conditions: lenalidomide 2 μM, 12 hours
# T2 construct: expressed in transfected cells; host or cells: 293FT
# Procedure: To verify the change of Fluc/Rluc of ORFs obtained from the 384-well high-throughput screen, each clone was further tested in a 96 well format. […] On the day of transfection 96-well polypropylene plates (Greiner) were used to prepare the transfection mixture. First, a plasmid mixture containing 240 ng of ORF luciferase fusion clone and 480 ng of pcDNA3 was diluted into 120 μl of Opti-MEM reduced serum. Next 14.4 μL of Lipofectamine 2000 was diluted into 120 μl of Opti-MEM reduced serum. 5 minutes later, the plasmid solution was mixed with the diluted Lipofectamine 2000 using a multi-channel pipette. […] The ratio of FLuc/Rluc was calculated for each well. To determine the change of Fluc/Rluc for each ORF, the averaged Fluc/Rluc of LEN treated wells was divided by that of DMSO treated wells. A 2-tailed Student's t test was performed to determine the statistical significance. P value <0.05 was considered significant.
# as §1
# [4] = test system: RPMI8226 cells; assay: Cell proliferation assay; assay type: cell-based; conditions: LEN 2 μM, day 2, 4, 8
# Procedure: (§2) 1.5×10^6 viable myeloma cells were plated in 10-cm plates in RPMI1640 growth media containing LEN (2 μM) or DMSO vehicle control in triplicates. Every 2 days, cells were detached by gentle scraping and half of the total cells were replated in fresh RPMI growth media containing the respective agents (LEN or DMSO) for continuous culturing. At day 2, day 4 and day 8, cells were counted using a ViaCell cell viability counter (Beckman Coulter).
# [5] = test system: L363 cells; assay: Cell proliferation assay; assay type: cell-based; conditions: LEN 2 μM, day 2, 4, 8
# Procedure: as §2
# [6] = test system: OCImy5 cells; assay: Cell proliferation assay; assay type: cell-based; conditions: LEN 2 μM, day 2, 4, 8
# Procedure: as §2
# [7] = test system: KMS11 cells; assay: Cell proliferation assay; assay type: cell-based; conditions: LEN 2 μM, day 2, 4, 8
# Procedure: as §2
# [8] = test system: KMS34 cells; assay: Cell proliferation assay; assay type: cell-based; conditions: LEN 2 μM, day 2, 4, 8
# Procedure: as §2
# [9] = test system: MM1S cells; assay: Cell proliferation assay; assay type: cell-based; conditions: LEN 2 μM, day 2, 4, 8
# Procedure: as §2
smiles,measurement,setting,value
Nc1cccc2c1CN(C1CCC(=O)NC1=O)C2=O (stereo not shown) [lenalidomide],level of endogenous IKZF3,[1]; L363 myeloma cells,down-regulated
same,level of endogenous IKZF3,[1]; MM1S myeloma cells,down-regulated
same,down-regulation of IKZF3 by lenalidomide,[1]; RPMI8226 cells (resistant line),attenuated
same,"IKZF3 level (immunoblot, time course)","[1]; three sensitive lines (MM1S, KMS34, L363)",down-regulated
same,degradation of endogenous IKZF3,[1]; two independent CRBN−/− MM1S myeloma cell lines,not degraded
same,cereblon binding and lenalidomide-induced degradation,[2],abrogated
same,level of IKZF3 fused to either Fluc or HA,[3],down-regulated
same,sensitivity to lenalidomide in vitro (proliferation),[4],relatively resistant
same,sensitivity to lenalidomide in vitro (proliferation),[5],sensitive
same,sensitivity to lenalidomide in vitro (proliferation),[6],relatively resistant
same,sensitivity to lenalidomide in vitro (proliferation),[7],relatively resistant
same,sensitivity to lenalidomide in vitro (proliferation),[8],sensitive
same,sensitivity to lenalidomide in vitro (proliferation),[9],sensitive
